Data taken from patent US9688676B2, “Tyrosine kinase inhibitors” (PRINCIPIA BIOPHARMA INC., priority 2015, dated 2017).

Chains of the proteins cited; added tags and fusions are not shown. Lines headed by an entry give the natural chain unless they say otherwise; changes in a name come on top.
UniProt Q06187: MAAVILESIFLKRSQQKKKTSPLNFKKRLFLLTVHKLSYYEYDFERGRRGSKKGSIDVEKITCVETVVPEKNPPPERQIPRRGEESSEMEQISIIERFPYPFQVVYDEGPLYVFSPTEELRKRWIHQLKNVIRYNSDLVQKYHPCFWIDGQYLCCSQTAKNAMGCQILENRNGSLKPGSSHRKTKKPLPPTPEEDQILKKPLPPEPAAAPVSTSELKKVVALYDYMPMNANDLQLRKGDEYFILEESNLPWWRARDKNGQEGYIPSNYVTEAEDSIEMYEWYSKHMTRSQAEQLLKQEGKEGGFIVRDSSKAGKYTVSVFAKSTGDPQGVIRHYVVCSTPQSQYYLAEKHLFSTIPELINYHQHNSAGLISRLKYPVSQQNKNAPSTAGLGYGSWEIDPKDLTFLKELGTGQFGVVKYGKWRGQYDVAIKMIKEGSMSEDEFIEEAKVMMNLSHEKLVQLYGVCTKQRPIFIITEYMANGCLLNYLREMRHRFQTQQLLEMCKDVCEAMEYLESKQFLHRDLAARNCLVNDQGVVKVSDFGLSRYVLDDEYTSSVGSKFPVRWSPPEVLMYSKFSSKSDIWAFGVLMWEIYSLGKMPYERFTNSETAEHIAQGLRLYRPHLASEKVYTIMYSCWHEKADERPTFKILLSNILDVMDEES

Molecular target: BTK (Homo sapiens (Human), UniProt Q06187)
Assay: BTK enzymatic activity assay (Caliper-based kinase assay)
Format: biochemical
Settings: human recombinant BTK 0.5 nM, ATP 16 μM, 3 h room temperature
Experimental: A Caliper-based kinase assay (Caliper Life Sciences, Hopkinton, Mass.) was used to measure inhibition of BTK kinase activity of a compound of the present disclosure. […] The reaction was then terminated with EDTA, final concentration 20 mM and the phosphorylated reaction product was quantified on a Caliper Desktop Profiler (Caliper LabChip 3000). […] This value is presented as the IC50.

CC1(C=C(C#N)C(=O)N2CCC[C@@H](n3c(=O)n(-c4ccc(Oc5ccccc5)cc4)c4c(N)nccc43)C2)CC1 [Compound 48, (R)-2-(3-(4-amino-2-oxo-3-(4-phenoxyphenyl)-2,3-dihydro-1H-imidazo[4,5-c]pyridin-1-yl)piperidine-1-carbonyl)-3-(1-methylcyclopropyl)acrylonitrile]
IC50: 9 nM
